Here are results for one substance from patent EP1588698A2, “A process for the production and screening of materials for use in pharmaceutical aerosol formulations” (Thompson, James Anthony, priority 2004, dated 2005).

The nature of this series: Screening of salt derivative solubility in ethanol co-solvent. It counts as physicochemical. As to conditions: ethanol reaction solution. An excerpt:
Solubility, of a drug salt derivative, to an appreciable extent, in solvents miscible with the propellant(s) provides a simple yet robust screening method.
The co-solvent used to screen derivative solubility and formulation approach was ethanol. […] A comprehensive list can be taken from texts such as the handbook of pharmaceutical excipients. Ethanol and water mixtures may be utilised. For solution aerosols a single phase is required when in the final formulation, but equally a suspension or emulsion may results and be utilised. As the model bronchodilator was a basic compound acids requisite for salt formation (from pKa values) were selected. […] The solvent necessary to facilitate dissolution is assumed to be of sufficient dielectric constant and an ideal solvent, although skilled practitioners will endeavor to try a range of solvents as formulation science is empirical. Other examples of suitable acids are acetate, benzenesulphonate, mesylate etc, and can be sought from any suitable text: Martindale 2005. […] Preferentially precipitated or solvated species may result from careful selection of reagents and forms of the active described. Preferentially precipitated or solvated compounds can be isolated either in bulk or in-situ for use.
Two non-limiting examples of use of the manufacture/ screening method are described below.

Turning to “salbutamol sulphate [reference compound]”, the “behaviour of the salt in ethanol solution (stable or precipitates)” value was “precipitated almost instantaneously”.
